Measurements taken from ChEMBL document CHEMBL1811821, “Cystic fibrosis: a new target for 4-Imidazo[2,1-b]thiazole-1,4-dihydropyridines” (J Med Chem, 2011).

Test: Bronchodilatory activity in guinea pig trachea assessed as inhibition of carbachol-induced contraction at 10^-5 M
Type: functional
Details: Cavia porcellus

## CCOC(=O)C1=C(C)NC(C)=C(C(=O)OCC)C1c1c(Cl)nc2sc(C)cn12
  inhibition at 10 µM: 92%
